# Assay results taken from PubChem BioAssay AID900 (National Center for Advancing Translational Sciences (NCATS), 2007).
# Amino acid sequences for entries named in this document (tags omitted). A change or cut given only in a name is not applied to a line headed by its entry.
# UniProt P29466: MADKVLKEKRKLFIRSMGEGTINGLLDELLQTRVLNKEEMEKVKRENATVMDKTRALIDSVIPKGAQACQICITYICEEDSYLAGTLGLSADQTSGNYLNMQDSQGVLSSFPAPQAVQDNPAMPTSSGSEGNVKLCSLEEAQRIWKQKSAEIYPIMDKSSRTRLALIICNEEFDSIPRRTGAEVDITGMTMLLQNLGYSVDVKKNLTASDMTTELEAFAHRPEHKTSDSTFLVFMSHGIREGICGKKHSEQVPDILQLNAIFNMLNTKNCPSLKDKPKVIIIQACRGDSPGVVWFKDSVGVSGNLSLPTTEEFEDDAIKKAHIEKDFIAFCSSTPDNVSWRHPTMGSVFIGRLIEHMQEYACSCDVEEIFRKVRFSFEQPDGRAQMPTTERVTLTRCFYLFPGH
# Several values for one entry are separate records, joined by “and”; a condition that tells them apart may be missing. Equal entries are not always repeated. The entries are a selection whose mix differs from that of the whole data set. Activity calls are given as the source filed them. Calls follow the shape of the dose curve; as a rule, active = well fitted inhibition curve with a large enough effect; inconclusive = small, poorly fitted or top-dose-only effect; inactive = flat fitted curve, though single readings scatter.
# Target: Caspase-1 (Homo sapiens) (UniProt P29466)
# Experiment: qHTS Assay for Allosteric/Competitive Inhibitors of Caspase-1;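 also: plate controls were vehicle for no effect and no substrate for full effect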
# Conditions: Caspase-1 enzyme, Ac-WEHD-AFC fluorogenic rate
# Excerpt: NIH Molecular Libraries Screening Centers Network [MLSCN]
# NIH Chemical Genomics Center [NCGC]
# PI Name: Dr. James Wells,
# Dr. Enrique Perez-Paya, Dr.Janice Williams, Dr. Dennis Wolan, a person
# The caspases (Cysteine Aspartyl Protease) comprise a related family of 14 dimeric proteases that are critical mediators of apoptosis (programmed cell death) and inflammation. The caspases represent an important class of drug targets for stroke, ischemia, cancer and inflammatory diseases. […] One goal of this project was to identify compounds that act as allosteric inhibitors via stabilizing the procaspase form of the enzyme. Previous work in Well's laboratory has shown that such allosteric inhibitors can be identified and these act by binding at the dimer interface of enzyme (Hardy, Lam et al., 2004).
# The biochemical assay was configured using purified caspase 1 at a high enzyme concentration to promote formation of the homodimers and thus facilitate the identification of allosteric inhibitors. The overall goal was to identify reversible inhibitors with better drug-like properties than the currently available set of aspartyl-containing peptidomimetics that covalently bind the active site. Caspase 1 was assayed using the profluorescent substrate Ac-WEHD-AFC. After initiation of the assay with substrate the plates were rapidly read using an automated robotic system (Kalypsys, Inc.) to maintain consistent timing. A kinetic mode of detection was used where the initial rate was collected (estimated final product formation was ~10%). Compounds were screened as a concentration-titration series that ranged from 57 uM to 0.7 nM. Below is the protocol used for caspase 1.
# NCGC Assay Protocol Summary:
# Caspase 1 was prepared in buffer (50 mM HEPES pH 7.5, 50 mM KCl, 200 mM NaCl, 10 mM DTT, 0.1% CHAPS) at a concentration of 66.6 nM and 3 uL was dispensed to all wells using black solid Kalypsys 1536-well plates. 20 nL of DMSO containing compounds was added using a pin-tool (Kalypsys Inc.) to columns 5-48. Then 20 nL of DMSO solution from a control plate was added to columns 1-4. Controls were: Column 1, 16 point titration with each concentration in duplicate (1:1 dilutions in DMSO; final starting concentration was 57 uM) of the caspase 1 inhibitor Ac-WEHD-CHO (Alexis Biochemicals); Column 2, a 16 point titration with each concentration in duplicate of the free AFC fluorophore prepared in DMSO (Alexis Biochemicals), final starting was 40 uM; Column 3 neutral (DMSO only) control; Column 4: DMSO alone, to serve as a negative control (no substrate was added). Then 1 uL of 20 uM the substrate Ac-WEHD-AFC (Alexis Biochemicals) prepared in the same buffer was dispensed to all wells except columns 2 and 4 and the plates were immediately transferred (< 1 min) to the Viewlux. The plates were then exposed using 405 nm excitation/520 nm emission filters for 4 sec and read at 20 sec intervals for 3 min. Final enzyme concentration was 50 nM and the final substrate concentration was 5 uM.
# Concentration-response curves were fitted to the data calculated from slope of the linear regression of fluorescent intensity versus time (the rate). The concentration-effect curves were then classified based on curve quality (r2), response magnitude and degree of measured activity. […] Inconclusive compounds had appreciable concentration-dependent effects on both the measured rate and the interpolated basal fluorescence intensity at the start of the reaction but where the basal fluorescent intensity was marginal (e.g. < 10-fold). Inconclusive compounds also encompass highly fluorescent compounds (>100-fold increases in fluorescent intensities values relative to controls) where artificial concentration-dependent decreases in the rate occurred at high compound concentrations due to fluorescent interferences.
# Keywords: Caspase 1, proteases, profluorescent, MLSMR, MLSCN, NIH Roadmap, qHTS, NCGC
# [1] = at 57.5 µM (top of the series) unless noted
compound,measurement,setting,value
CN(C(=O)Cc1ccc(Cl)c(Cl)c1)[C@H]1CCCC[C@@H]1N1CCCC1,"activity change, negative = inhibition",[1],inactive: 2.5% and inactive: 0.376% and inactive: -0.0742%
[N-]=[N+]=NCC(O)CN=[N+]=[N-] (configuration not stated),"activity change, negative = inhibition",[1],inactive: -1.8% [at 11.5 µM]
C(Cc1nn[nH]n1)c1nn[nH]n1,"activity change, negative = inhibition",[1],inactive: -1.87% [at 11.5 µM]
O=[N+]([O-])c1ccc(C[As](=O)(O)O)cc1,"activity change, negative = inhibition",[1],inactive: -1.14% [at 11.5 µM]
Cc1c2non([O-])c-2c(C)[n+](=O)[n+]1[O-],"activity change, negative = inhibition",[1],inactive: -0.295%
NCC[C@@H](N)CSP(=O)(O)O,"activity change, negative = inhibition",[1],inactive: 0.401% [at 11.5 µM]
CCc1nc2c(n1)c1c(non1O)c1c2no[n+]1[O-],"activity change, negative = inhibition",[1],inactive: -10.2%
O=C(CO)Nc1ccc([As](=O)(O)O)cc1,"activity change, negative = inhibition",[1],inactive: -4.29% [at 11.5 µM]
CN(C(=O)Cc1ccccc1)[C@@H]1CC[C@@]2(CCCO2)C[C@H]1N1CCCC1,"activity change, negative = inhibition",[1],inactive: -0.445%
Cc1cc([N+](=O)[O-])cc([N+](=O)[O-])c1O,"activity change, negative = inhibition",[1],inactive: -0.568%
[N-]=[N+]=Nc1ccc([As](=O)(O)O)cc1,"activity change, negative = inhibition",[1],inactive: 1.15% [at 11.5 µM]
O=C(OC1CN2CCC1CC2)c1cccc(Cl)c1 (configuration not stated),"activity change, negative = inhibition",[1],inactive: -1.45%
O=P(Nc1nccs1)(c1ccccc1)c1ccccc1,"activity change, negative = inhibition",[1],inactive: -6.79%
c1nnnn1CCn1cnnn1,"activity change, negative = inhibition",[1],inactive: -0.0427%
CN1CCC[C@H](OC(=O)C(c2ccccc2)c2ccccc2)C1,"activity change, negative = inhibition",[1],inactive: 0.724% [at 11.5 µM]
C[C@@H](O)COc1ccc([As](=O)(O)O)cc1N,"activity change, negative = inhibition",[1],inactive: -2.4% [at 11.5 µM]
O=P1(Nc2nc3ccc(Cl)cc3s2)COc2ccccc2O1 (configuration not stated),"activity change, negative = inhibition",[1],inactive: -0.164%
COC(=O)c1cc2c(s1)N=C(c1ccccc1)N(C)P2(=O)N1CCOCC1 (configuration not stated),"activity change, negative = inhibition",[1],inactive: -1.55%
CCOP1(=S)c2c(C)nn(CCC#N)c2N=C(c2ccccc2F)N1C (configuration not stated),"activity change, negative = inhibition",[1],inactive: -0.815%
O=P(Nc1nccs1)(c1ccccc1)c1nc2ccccc2s1 (configuration not stated),"activity change, negative = inhibition",[1],inactive: -0.0607%
O=[As](O)(O)c1ccc([As](=O)(O)O)cc1,"activity change, negative = inhibition",[1],inactive: -3.74% [at 11.5 µM]
NC(=O)Nc1ccc([As](=O)(O)O)cc1,"activity change, negative = inhibition",at 25.7 µM (top of the series),inactive: -0.813%
same,"activity change, negative = inhibition",at 57.5 µM (top of the series),inactive: -2.7%
CCOP1(=S)c2c(C)nn(CCC#N)c2N=C(c2ccc(F)cc2)N1C (configuration not stated),"activity change, negative = inhibition",[1],inactive: 1.17%
NS(=O)(=O)Cc1ccc([As](=O)(O)O)cc1,"activity change, negative = inhibition",[1],inactive: -1.05% [at 11.5 µM]
O=C(CC(=O)c1ccccc1)O[C@H]1CN2CCC1CC2,"activity change, negative = inhibition",[1],inactive: 0.592% [at 11.5 µM]
CN(C(=O)Cc1ccc(Cl)c(Cl)c1)[C@@H]1CC[C@@]2(CCCO2)C[C@H]1N1CCCC1,"activity change, negative = inhibition",[1],inactive: 1.96%
O=P1(Nc2ccccn2)COc2ccccc2OC1,"activity change, negative = inhibition",[1],inactive: -1.14%
CN(CCCl)Cc1cc(Cl)c(NC2=NCCN2)c(Cl)c1,"activity change, negative = inhibition",[1],inactive: 0.944%
Clc1n[nH]nc1-c1nn[nH][15n]1,"activity change, negative = inhibition",[1],inactive: 1.98%
CN(C(=O)Cc1ccc(Cl)c(Cl)c1)[C@@H]1CCCC[C@H]1N1CCCC1,"activity change, negative = inhibition",[1],inactive: -1.46% [middle of 4 runs]
Cc1nn(-c2ccccc2)c2c1P(=O)(N1CCOCC1)N(C)C(c1ccccc1)=N2 (configuration not stated),"activity change, negative = inhibition",[1],inactive: 0.938%
O=P1(Nc2ncccn2)COc2ccccc2OC1,"activity change, negative = inhibition",[1],inactive: 1.19%
O=P1(Nc2ccc(Br)cn2)COc2ccccc2OC1,"activity change, negative = inhibition",[1],inactive: 1.06%
CN(N=O)C(=N)N[N+](=O)[O-],"activity change, negative = inhibition",[1],inactive: -1.85%
COP1(=S)c2c(C)nn(CCC#N)c2N=C(c2ccc(F)cc2)N1C (configuration not stated),"activity change, negative = inhibition",[1],inactive: 1.37%
O=C(COc1ccccc1)OC1CN2CCC1CC2 (configuration not stated),"activity change, negative = inhibition",[1],inactive: 2.32%
O=C(O)[C@@H](O)c1ccc([As](=O)(O)O)cc1,"activity change, negative = inhibition",[1],inactive: 4.33% [at 11.5 µM]
O=C(OC1CN2CCC1CC2)C12CC3CC(CC(C3)C1)C2 (configuration not stated),"activity change, negative = inhibition",[1],inactive: -2.14%
NC(=O)Nc1cc([As](=O)(O)O)cc(I)c1O,"activity change, negative = inhibition",[1],inactive: -0.459% [at 11.5 µM]
O=[As]c1ccc(S(=O)(=O)NCCO)cc1 (configuration not stated),"activity change, negative = inhibition",[1],inactive: 0.291% [at 11.5 µM]
[N-]=[N+]=NCC(N)=O,"activity change, negative = inhibition",[1],inactive: 0.475% [at 11.5 µM]
